# Only a part is listed here, and it is no random draw. Entries with a potency or affinity are not part of this list. Some results for these compounds are left out of this collection, so the calls shown say nothing about other tests. Active and inactive are the calls of the source.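 The calls were made as follows: active = inhibition of at least 50% with at least 30 cells and total cytoplasm GFP at most 10,000,000; inconclusive = under 30 cells or total GFP of 10,000,000 plus; inactive = the rest.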
# Amino acid sequences for entries named in this document (tags omitted).
# UniProt Q9HC97, whole entry: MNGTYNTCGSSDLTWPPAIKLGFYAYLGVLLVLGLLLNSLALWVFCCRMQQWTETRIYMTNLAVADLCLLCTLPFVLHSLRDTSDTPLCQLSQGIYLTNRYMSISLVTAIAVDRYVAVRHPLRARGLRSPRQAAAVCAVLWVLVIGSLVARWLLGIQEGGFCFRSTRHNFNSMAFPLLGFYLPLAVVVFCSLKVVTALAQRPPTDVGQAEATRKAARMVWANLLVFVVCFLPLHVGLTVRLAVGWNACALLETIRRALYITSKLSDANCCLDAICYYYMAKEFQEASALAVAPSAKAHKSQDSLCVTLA
# Biological target: G-protein coupled receptor 35 (Homo sapiens) (UniProt Q9HC97)
# Test: inhibition of zaprinast-stimulated GPR35 beta-arrestin translocation – imaging, U2OS, beta-arrestin-GFP, zaprinast agonist, primary screen (AID 2058)
# Settings: zaprinast antagonism, at 10 µM, active compounds read high
row,SMILES,inhibition
1,Cc1ccccc1C(=O)NCC1(N2CCCCC2)CCCCC1,inactive: 0.4%
2,CN(C)C1CCCC1OC(=O)C(O)(c1ccccc1)c1ccccc1 (centres undefined),inactive: -6.5%
3,CN(C)c1ccc(C(=O)NCC2(N(C)C)CCCCC2)cc1,inactive: -1.8%
4,C=CCN1CCN(CCOC(=O)C(O)(c2ccccc2)c2ccccc2)CC1,inactive: 4.9%
5,O=C(NCC1(N2CCCCC2)CCCCC1)c1cc(F)c(F)cc1Cl,inactive: 11.9%
6,Cc1cc(C(=O)NCC2(N3CCCCC3)CCCCC2)ccc1[N+](=O)[O-],inactive: 3.6%
7,CCN1CCCC(OC(=O)C2(O)c3ccccc3C=Cc3ccccc32)C1 (centres undefined),inactive: 9.9%
8,O=C(NCC1(N2CCCCC2)CCCCC1)c1cccc(Br)c1,inactive: -13.7%
9,COc1ccc(C(=O)NCC2(N(C)C)CCCCC2)cc1,inactive: 16.1%
10,O=C(NCC1(N2CCCCC2)CCCCC1)c1cc([N+](=O)[O-])ccc1Cl,inactive: -5.9%
11,CN1[C@@H]2CC[C@H]1CC(OC(=O)C(O)(c1ccccc1)c1ccccc1)C2 (some centres undefined),inactive: -9.4%
12,CC(C)N1C(=O)CC2(CCN(CCOC(=O)C(O)(c3ccccc3)c3ccccc3)CC2)C1=O,inactive: -5.4%
13,CCN(CC)CC(C)C(C)OC(=O)C(O)(c1ccccc1)c1ccccc1 (centres undefined),inactive: -8.7%
14,COc1cc(SC)ccc1C(=O)NCC1(N(C)C)CCCCC1,inactive: 3.1%
15,Cc1ccc(C(=O)NCC2(N3CCCCC3)CCCCC2)cc1,inactive: -4.7%
16,O=C(OC1CN2CCC1CC2)C(CO)(c1ccccc1)c1ccccc1 (centres undefined),inactive: -11.3%
17,COc1ccc(Br)c(C(=O)NCC2(N3CCCCC3)CCCCC2)c1,inactive: 1.8%
18,CN(C)c1cccc(C(=O)NCC2(N(C)C)CCCCC2)c1,inactive: 3.6%
19,CC(C)Oc1ccc(C(=O)NCC2(N(C)C)CCCCC2)cc1,inactive: -3.4%
20,CN(C)C1(CNC(=O)c2ccc(Br)cc2)CCCCC1,inactive: 9.6%
21,COc1cc(C(=O)NCC2(N(C)C)CCCCC2)c([N+](=O)[O-])cc1OC,inactive: 2.1%
22,COc1cccc(C(=O)NCC2(N3CCCCC3)CCCCC2)c1,inactive: -4.6%
23,COc1ccc(Cl)cc1C(=O)NCC1(N(C)C)CCCCC1,inactive: 16.3%
24,O=C(NCC1(N2CCCCC2)CCCCC1)c1cccc(Cl)c1,inactive: -20.5%
